Each structure is given as a SMILES string.

By UniProt entry, the sequences of proteins in these tests, tags left out. Where a name states a change or a piece, a line headed by the entry shows the natural chain unless it says otherwise.
UniProt P41145: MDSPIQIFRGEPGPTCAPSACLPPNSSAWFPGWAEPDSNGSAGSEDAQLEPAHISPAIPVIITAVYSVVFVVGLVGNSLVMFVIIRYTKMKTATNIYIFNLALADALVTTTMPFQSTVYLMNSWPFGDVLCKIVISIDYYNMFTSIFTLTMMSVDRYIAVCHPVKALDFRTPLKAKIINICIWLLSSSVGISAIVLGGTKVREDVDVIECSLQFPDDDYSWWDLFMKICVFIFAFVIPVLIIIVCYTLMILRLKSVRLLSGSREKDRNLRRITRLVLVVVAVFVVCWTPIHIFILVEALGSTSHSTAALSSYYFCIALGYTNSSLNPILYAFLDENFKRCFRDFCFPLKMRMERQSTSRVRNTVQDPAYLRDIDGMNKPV

The target in the assay is Kappa-type opioid receptor (Homo sapiens, UniProt P41145). In words: In vitro binding affinity towards Opioid receptor kappa 1 by displacement of bound [3H]U-69593.
For the molecule `CN(C(=O)Cc1ccc(C(F)(F)F)cc1)[C@H](CN1CCCC1)c1ccccc1`, the affinity, expressed as Ki, was 0.058 nM. This lies in the picomolar range. To `CN(C(=O)Cc1ccc(N)cc1)[C@H](CN1CCCC1)c1ccccc1` belongs 0.93 nM. To `CN(C(=O)Cc1ccc(Cl)c(Cl)c1)[C@H](CN1CCCC1)c1ccccc1` [ICI-199,441] belongs 0.054 nM; to `CN(C(=O)Cc1ccc(Cl)c(Cl)c1[N+](=O)[O-])[C@H](CN1CCCC1)c1ccccc1`, 0.091 nM; to `CN(C(=O)Cc1ccc(Cl)c(Cl)c1N)[C@H](CN1CCCC1)c1ccccc1`, 0.086 nM.

Regarding `CN(C(=O)Cc1ccccc1C(F)(F)F)[C@H](CN1CCCC1)c1ccccc1`, affinity was put at a Ki of 0.13 nM. This Ki lies about 1.5-fold higher than the previous one. To `CN(C(=O)Cc1ccccc1N)[C@H](CN1CCCC1)c1ccccc1` belongs 0.58 nM; to `CN(C(=O)Cc1ccccc1[N+](=O)[O-])[C@H](CN1CCCC1)c1ccccc1`, 0.41 nM.

`CN(C(=O)Cc1cccc([N+](=O)[O-])c1)[C@H](CN1CCCC1)c1ccccc1`: the Ki (as a rule, a measure of affinity in units of concentration, obtained from inhibition or displacement) came out at 0.065 nM. Consider `CN(C(=O)Cc1ccccc1N(S(C)(=O)=O)S(C)(=O)=O)[C@H](CN1CCCC1)c1ccccc1`, for which the Ki was 8.6 nM.

As for `CN(C(=O)Cc1ccc(Cl)c(Cl)c1N(S(C)(=O)=O)S(C)(=O)=O)[C@H](CN1CCCC1)c1ccccc1`, the Ki came out at 0.096 nM. This Ki is about 90-fold lower than that of the molecule before. `CN(C(=O)Cc1ccc([N+](=O)[O-])cc1)[C@H](CN1CCCC1)c1ccccc1` yielded a Ki of 1.1 nM. To `CN(C(=O)Cc1ccc(N(S(C)(=O)=O)S(C)(=O)=O)cc1)[C@H](CN1CCCC1)c1ccccc1` belongs 25 nM. To `CN(C(=O)Cc1cccc(C(F)(F)F)c1)[C@H](CN1CCCC1)c1ccccc1` belongs 0.064 nM.

For the molecule `CN(C(=O)Cc1cccc(N)c1)[C@H](CN1CCCC1)c1ccccc1`, the Ki was determined as 0.93 nM. Consider `CN(C(=O)Cc1cccc(N(S(C)(=O)=O)S(C)(=O)=O)c1)[C@H](CN1CCCC1)c1ccccc1`, for which the Ki turned out to be 6 nM.

For the origin of these results see ChEMBL document CHEMBL1132816, “Arylacetamides as peripherally restricted kappa opioid receptor agonists” (Bioorg Med Chem Lett, 2000).
